Test results published in ChEMBL document CHEMBL6134906, “Design, Synthesis, and Biological Evaluation of Selective STING Synergists That Enhance cGAMP-STING Pathway Activation without Inherent Agonist Activity” (J Med Chem, 2025).

Sequences of proteins named here, by UniProt entry; tags and fusion partners are left off. A change or cut given only in a name is not applied to a line headed by its entry.
UniProt Q86WV6: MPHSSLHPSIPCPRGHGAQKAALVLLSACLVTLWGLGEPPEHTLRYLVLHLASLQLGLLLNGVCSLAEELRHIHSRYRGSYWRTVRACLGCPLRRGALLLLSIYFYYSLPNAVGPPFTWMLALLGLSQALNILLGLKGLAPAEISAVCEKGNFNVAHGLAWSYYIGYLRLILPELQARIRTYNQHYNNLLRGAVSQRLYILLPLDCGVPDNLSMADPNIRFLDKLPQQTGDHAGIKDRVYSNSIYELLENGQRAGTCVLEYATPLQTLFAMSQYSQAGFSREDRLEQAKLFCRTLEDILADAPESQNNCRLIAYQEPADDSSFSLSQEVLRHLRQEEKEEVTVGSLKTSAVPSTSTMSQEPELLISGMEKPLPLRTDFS

How the values were obtained:
[1] = target: T1, Stimulator of interferon genes protein (Mus musculus) (UniProt Q3TBT3); assay: Agonist activity at mouse STING expressed in HEK293 cells assessed as SEAP production at 100 uM incubated for 48 hrs by QUANTI-Blue solution based spectrophotometric analysis; format: cell-based
T1 sequence (whole entry): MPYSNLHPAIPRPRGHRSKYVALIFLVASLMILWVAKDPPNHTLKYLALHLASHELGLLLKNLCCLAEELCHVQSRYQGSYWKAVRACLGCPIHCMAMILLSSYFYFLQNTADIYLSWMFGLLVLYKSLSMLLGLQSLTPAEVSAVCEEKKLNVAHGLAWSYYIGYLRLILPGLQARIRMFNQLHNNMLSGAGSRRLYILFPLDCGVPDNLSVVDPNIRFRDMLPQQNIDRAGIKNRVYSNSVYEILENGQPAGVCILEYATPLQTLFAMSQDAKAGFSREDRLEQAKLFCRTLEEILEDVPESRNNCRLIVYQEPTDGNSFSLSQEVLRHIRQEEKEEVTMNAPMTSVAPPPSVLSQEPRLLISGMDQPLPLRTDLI

[2] = target: T1, Stimulator of interferon genes protein (Mus musculus); assay: Potentiation of cGAMP-induced mouse STING pathway activation expressed in HEK293 cells assessed as leftward shift in cGAMP agonist curve at 33 to 100 uM incubated for 48 hrs by QUANTI-Blue solution based spectrophotometric analysis; format: cell-based; conditions: filed as agonist, dose 33-100 µM
[3] = target: T1, Stimulator of interferon genes protein (Mus musculus); assay: Potentiation of cGAMP-induced mouse STING pathway activation expressed in HEK293 cells assessed as fold change in cGAMP EC50 at 100 uM incubated for 48 hrs by QUANTI-Blue solution based spectrophotometric analysis relative to cGAMP alone; format: cell-based; conditions: filed as agonist
[4] = target: T1, Stimulator of interferon genes protein (Mus musculus); assay: Potentiation of cGAMP-induced mouse STING pathway activation expressed in HEK293 cells assessed as fold change in cGAMP EC80 at 100 uM incubated for 48 hrs by QUANTI-Blue solution based spectrophotometric analysis relative to cGAMP alone; format: cell-based; conditions: filed as agonist
[5] = target: T1, Stimulator of interferon genes protein (Mus musculus); assay: Potentiation of cGAMP-induced mouse STING pathway activation expressed in HEK293 cells assessed as fold change in cGAMP EC50 at 33 uM incubated for 48 hrs by QUANTI-Blue solution based spectrophotometric analysis relative to cGAMP alone; format: cell-based; conditions: filed as agonist
[6] = target: T1, Stimulator of interferon genes protein (Mus musculus); assay: Potentiation of cGAMP-induced mouse STING pathway activation expressed in HEK293 cells assessed as fold change in cGAMP EC80 at 33 uM incubated for 48 hrs by QUANTI-Blue solution based spectrophotometric analysis relative to cGAMP alone; format: cell-based; conditions: filed as agonist
[7] = target: T2, Stimulator of interferon genes protein (Homo sapiens, UniProt Q86WV6); assay: Potentiation of cGAMP-induced human STING pathway activation expressed in HEK293 cells assessed as SEAP production at 25 uM incubated for 48 hrs by QUANTI-Blue solution based spectrophotometric analysis; format: cell-based; conditions: filed as agonist
[8] = target: T2, Stimulator of interferon genes protein; assay: Potentiation of cGAMP-induced STING pathway activation in human THP1-Dual KO-STING cells incubated for 24 hrs by reporter assay; format: cell-based
[9] = target: T2, Stimulator of interferon genes protein; assay: Potentiation of cGAMP-induced STING pathway activation in human THP1-Dual KI-hSTING-R232 cells incubated for 24 hrs by reporter assay; format: cell-based
[10] = target: T2, Stimulator of interferon genes protein; assay: Potentiation of cGAMP-induced STING pathway activation in human THP1-Dual KI-hSTING-R232 cells assessed as fold change at 25 uM incubated for 24 hrs by reporter assay relative to cGAMP; format: cell-based; conditions: filed as agonist
[11] = target: T2, Stimulator of interferon genes protein; assay: Agonist activity at STING in human THP1-Dual KI-hSTING-R232 cells incubated for 24 hrs by reporter assay; format: cell-based
[12] = target: T2, Stimulator of interferon genes protein; assay: Potentiation of cGAMP-induced human STING pathway activation expressed in HEK293 cells assessed as SEAP production at 500 nM incubated for 48 hrs by QUANTI-Blue solution based spectrophotometric analysis; format: cell-based; conditions: filed as agonist
THP1-Dual KO-STING [13] = assay: Induction of IFN-gamma release in human THP1-Dual KO-STING cells at 6.25 microg/ml incubated for 48 to 72 hrs by HTRF ImmunoFactor kit analysis; format: functional, cell-based; conditions: dose 6.25 µg/ml, time 48-72 hrs
THP1-Dual KO-STING [14] = assay: Induction of CXCL-10 release in human THP1-Dual KO-STING cells at 6.25 microg/ml incubated for 48 to 72 hrs by HTRF ImmunoFactor kit analysis; format: functional, cell-based; conditions: dose 6.25 µg/ml, time 48-72 hrs
THP1-Dual KO-STING [15] = assay: Induction of IL6 release in human THP1-Dual KO-STING cells at 6.25 microg/ml incubated for 48 to 72 hrs by HTRF ImmunoFactor kit analysis; format: functional, cell-based; conditions: dose 6.25 µg/ml, time 48-72 hrs
B16-F10 = assay: Antitumor activity against mouse B16-F10 cells implanted in male C57BL/6 syngeneic mouse model assessed as reduction in tumor volume at 0.5 mg/kg, IT administered on days 7, 10 and 13; format: functional, organism-based; conditions: time 7.0 day

| Structure (SMILES) | Activity [1] | Activity [2] | fold change (FC) [3] | fold change (FC) [4] | fold change (FC) [5] | fold change (FC) [6] | also measured |
| --- | --- | --- | --- | --- | --- | --- | --- |
| COc1cc2c(=O)c3cc(C)cc(C(=O)O)c3[nH]c2c(C)c1C | inactive | Active | 3.05 | 1.47 | 1.34 | 1.03 | – |
| COc1ccc2[nH]c3c(C)c(C)ccc3c(=O)c2c1 | – | – | – | – | – | – | Activity [7]: Active; Activity [8]: inactive; Activity ([9]; filed as agonist): Active; fold change (FC) [10]: 2.72 |
| Cc1ccc2c(=O)c3cccc(CC(=O)O)c3oc2c1C | – | – | – | – | – | – | Activity [9]: inactive; Activity [11]: inactive |
| CC1(C)C(=O)N(Cc2c(F)cccc2Cl)c2cc(C(=O)NCc3c(F)cc(F)cc3F)ccc21 | – | – | – | – | – | – | Activity [12]: Active |
| Nc1nc2c(ncn2[C@@H]2O[C@@H]3COP(=O)(O)O[C@H]4[C@@H](O)[C@H](n5cnc6c(N)ncnc65)O[C@@H]4COP(=O)(O)O[C@@H]2[C@@H]3O)c(=O)[nH]1 | – | – | – | – | – | – | Activity (THP1-Dual KO-STING [13]): inactive; Activity (THP1-Dual KO-STING [14]): inactive; Activity (THP1-Dual KO-STING [15]): inactive; Activity (B16-F10): Active |
| CCOC(=O)Cn1c2ccc(OC)cc2c(=O)c2cc(OC)c(C)c(C)c21 | inactive | Active | 2.06 | 1.99 | 1.53 | 1.07 | – |

The source made the active and inactive calls. The calls are words filed in the database; no cut-off is given here.
